Where a name gives a salt, the structure may show the parent alone.
What was measured:
[1] = target: T1, Rm3(GURC)-Rlu (Rattus norvegicus, UniProt P08483, A184R); experiment: cell-based; details: 20 h, read-out: response (activity) in LOPAC screen
T1 sequence (P08483 with tags, fused parts or gaps A184R): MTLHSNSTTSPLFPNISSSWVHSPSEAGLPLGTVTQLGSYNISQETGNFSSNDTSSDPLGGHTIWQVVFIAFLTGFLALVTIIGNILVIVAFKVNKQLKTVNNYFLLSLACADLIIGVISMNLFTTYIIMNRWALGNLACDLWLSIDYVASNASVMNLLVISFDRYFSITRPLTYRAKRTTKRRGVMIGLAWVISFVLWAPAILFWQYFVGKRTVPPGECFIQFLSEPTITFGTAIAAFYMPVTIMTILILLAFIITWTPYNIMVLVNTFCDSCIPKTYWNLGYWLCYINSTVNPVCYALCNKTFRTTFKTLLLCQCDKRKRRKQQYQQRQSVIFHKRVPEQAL

[2] = target: T1, Rm3(GURC)-Rlu; details: [3H]NMS displacement, COS-7 cell homogenates
[3] = target: T1, Rm3(GURC)-Rlu; assay type: cell-based

SMILES | activity at 2 µM [1] [%] | other results
CN1[C@@H]2CC[C@H]1C[C@@H](OC(c1ccccc1)c1ccccc1N)C2 (stereo partly drawn) [aminobenztropine] | > 140 | 
CN1CCN(CC(=O)N2c3ccccc3C(=O)Nc3cccnc32)CC1 [pirenzepine] | > 140 | 
C[N+]1(C)CCC(OC(=O)C(c2ccccc2)c2ccccc2)CC1.[I-] [4-DAMP] |  | decrease in binding affinity to the Rm3(GURC)-Rlu than the wild-type [2]: 1 fold
NCCc1c[nH]c2ccc(O)cc12 [serotonin] |  | effect on the luciferase activity of Rm3(GURC)-Rlu [3]: did not change
S=C(NC1CCCCC1)N1CCC(c2cnc[nH]2)CC1 [thioperamide] | > 150 | 
COC(=O)C1=C(C)NC(C)=C(C(=O)OCCN(C)Cc2ccccc2)C1c1cccc([N+](=O)[O-])c1 (stereo not drawn) [nicardipine] | > 150 | 
C=C[C@H]1C[N@@]2CC[C@H]1C[C@@H]2[C@@H](O)c1ccnc2ccc(OC)cc12 [quinidine sulfate] | > 150 | 
C[N+](C)(C)CC#CCN1CCCC1=O [Oxotremorine M] |  | EC50 in luciferase upregulation assay relative to competition binding assay (right-shift) [3]: 1000 fold
Cc1ccc(OCC(O)C(C)NC(C)C)c2c1CCC2 (stereo not drawn) [ICI-118,551] |  | effect on the luciferase activity of Rm3(GURC)-Rlu [3]: no significant effect
N=C(N)SCCc1cnc[nH]1 [imetit] |  | effect on the luciferase activity of Rm3(GURC)-Rlu [3]: did not change
C[C@@H]1OC(=O)[C@H]2C[C@H]3CCCC[C@@H]3[C@@H](/C=C/[C@H]3CCC[C@H](C)N3C)[C@@H]12 [himbacine] | > 140 | EC50 in luciferase upregulation assay relative to competition binding assay (right-shift) [3]: small right-shift

Reference: US20080009551A1, “Methods and Compositions for Identifying Modulators of G Protein-Coupled Receptors” (Arena Pharmaceuticals, Inc., priority 2003, published 2008)
